The source of these data is publication PMC12037410, “Pharmacological targeting of BMAL1 modulates circadian and immune pathways” (Nature Chemical Biology, 2025).

By UniProt entry, the sequences of proteins in these tests, tags left out. Residues count along the entry.
UniProt O00327, 338-449 limits assumed: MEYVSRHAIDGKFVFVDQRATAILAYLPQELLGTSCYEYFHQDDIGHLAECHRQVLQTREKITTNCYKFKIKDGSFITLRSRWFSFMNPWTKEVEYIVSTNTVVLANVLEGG

Some compounds may have been tested in ways that are not shown here.

For this experiment, the target named is BMAL1 (Homo sapiens, UniProt O00327). To be noted: binder.

For the compound `O=C1CCN(CCc2ccccc2)CC1`, the “Bmal1(PASB) dTmB” value was -0.61 °C.
